Drawing on PubChem BioAssay AID2435 (The Scripps Research Institute Molecular Screening Center, 2010), this text covers activation for 28 compounds.

Protein sequences, listed by entry. Tags and fused reporters are not part of them.
UniProt P30559, whole entry: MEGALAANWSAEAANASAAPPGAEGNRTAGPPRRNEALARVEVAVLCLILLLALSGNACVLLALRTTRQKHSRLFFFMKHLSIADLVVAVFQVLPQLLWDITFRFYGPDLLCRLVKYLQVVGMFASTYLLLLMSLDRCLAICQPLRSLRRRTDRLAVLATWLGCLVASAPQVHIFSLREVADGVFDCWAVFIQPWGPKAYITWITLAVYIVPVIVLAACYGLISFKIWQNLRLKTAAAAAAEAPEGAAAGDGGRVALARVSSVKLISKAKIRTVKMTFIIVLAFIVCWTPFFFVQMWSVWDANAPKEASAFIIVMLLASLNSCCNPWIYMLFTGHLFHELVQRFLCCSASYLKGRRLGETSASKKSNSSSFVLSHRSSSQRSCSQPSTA

The structures appear in SMILES notation. Only a part is listed here, and it is no random draw. Activity calls are given as the source filed them.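 The calls were made as follows: active = activation above the mean of all tested compounds plus 3 SD, cutoff set per screening run (cut at about 20% in these data); inactive = the rest.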

This experiment concerns the target Oxytocin receptor (Homo sapiens) (UniProt P30559). The experiment can be described thus: human OXTR agonists, primary screen, fluorescence, CHO-OTR cells, Fluo-8 calcium (AID 2435).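 Also: peak over basal fluorescence ratio from a 100 s FLIPR kinetic read.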 To be noted: Fluo-8 calcium fluorescence, at 3 µM, hits give high values, normalized: DMSO 0%, oxytocin 100%.
With `O=C(NCC1(N2CCCCC2)CCCCC1)c1ccc(OC(F)F)cc1`, the activation was inactive: 0.54%.

`CCN1CCC(Nc2ccc(Cl)cc2)CC1`: the activation is inactive: 1.2%.

Take `N#CC1(Nc2ccccc2)CCN(CCc2ccccc2)CC1`: the activation was inactive: 0.48%.

On to `O=C(NCC1(N2CCCCC2)CCCCC1)c1cccc([N+](=O)[O-])c1`, for which the activation was inactive: -0.02%.

In the case of `O=C(NCC1(N2CCCCC2)CCCCC1)c1cccc(C(F)(F)F)c1`, the activation is inactive: 1.09%.

In the case of `COc1cc(C(=O)NCC2(N3CCCCC3)CCCCC2)ccc1OC(F)F`, the activation is inactive: 0.7%.

On to `O=C(NCC1(N2CCOCC2)CCCCC1)c1cc(=O)[nH]c2ccccc12`, for which the activation is inactive: 0.01%.

On to `CN1CCN(CCOC(=O)C(O)(c2ccccc2)c2ccccc2)CC1`, for which the activation is inactive: -0.94%.

As for `COc1ccc(NC2CCN(C(=O)OC(C)(C)C)CC2)cc1`, the activation was inactive: 0.17%.

Consider `CC(C)c1ccc(NC2CCN(C(=O)OC(C)(C)C)CC2)cc1`, for which the activation was inactive: -0.74%.

Turning to `COc1ccc(CN(CCCl)CCCl)cc1Cl`, the activation is inactive: 1.19%.

As to `CN(C)c1cccc(C(=O)NCC2(N3CCCCC3)CCCCC2)c1`, the activation is inactive: 0.33%.

`COc1cc(OC)c(C(=O)NCC2(N(C)C)CCCCC2)cc1OC`: the activation was inactive: 1.86%.

In the case of `O=C(NCC1(N2CCOCC2)CCCCC1)c1cc(F)c(F)cc1Cl`, the activation was inactive: -1.78%.

Turning to `CN1CCC(Nc2cccc(F)c2)CC1`, the activation was inactive: 0.42%.

With `O=C(NCC1(N2CCCCC2)CCCCC1)c1cncc(Br)c1`, the activation was inactive: -0.14%.

With `COc1ccc(C(=O)NCC2(N3CCCCC3)CCCCC2)cc1`, the activation was inactive: 1.22%.

As for `CC(C)(C)OC(=O)N1CCC(N(C(=O)c2ccccc2)c2ccc(F)cc2)CC1`, the activation was inactive: -1.06%.

With `COc1ccc(C(=O)NCC2(N3CCCCC3)CCCCC2)c(OC)c1OC`, the activation is inactive: -0.11%.

As for `O=C(NCC1(N2CCCCC2)CCCCC1)c1ccc(=O)[nH]c1`, the activation is inactive: 0.12%.

In the case of `O=C(NCC1(N2CCCCC2)CCCCC1)c1cccs1`, the activation was inactive: 0.12%.

Consider `CSc1ccccc1C(=O)NCC1(N2CCCCC2)CCCCC1`, for which the activation was inactive: -0.3%.

Regarding `O=C(NCC1(N2CCCCC2)CCCCC1)c1ccc(Cl)nc1`, the activation is inactive: -1.07%.

With `Cc1cc(C)cc(N(C(=O)c2ccccc2)C2CCN(C(=O)OC(C)(C)C)CC2)c1`, the activation was inactive: -2.36%.

Regarding `O=C(NCC1(N2CCOCC2)CCCCC1)c1cc2ccccc2o1`, the activation is inactive: -0.62%.

In the case of `O=C(NCC1(N2CCCCC2)CCCCC1)c1ccc(Cl)s1`, the activation was inactive: 1.13%.

As to `N#CC1(Nc2ccccc2)CCN(Cc2ccccc2)CC1`, the activation is inactive: 1.05%.

In the case of `O=C(OC1CN2CCC1CC2)C1c2ccccc2Oc2ccccc21` (stereo not drawn), the activation was inactive: 0.29%.
